The text below walks through data of ChEMBL document CHEMBL2448811, “Comparison of the accuracy of experimental and predicted pKa values of basic and acidic compounds” (Pharm Res, 2013).

The nature of this data set: physchem.

SMILES strings stand for the structures.

Take `CC/C(=C(\c1ccccc1)c1ccc(OCCN(C)C)cc1)c1ccccc1` [TAMOXIFEN]: the pKa – broadly, the negative logarithm of the acid dissociation constant – worked out at 8.48.
